Paper PMC4890168 (Journal of medicinal chemistry, 2016)

Test system: cardiomyocytes isolated from adult mice
Assay: Contractility in mouse cardiomyocytes
Details: compared with lead 2; isoproterenol stimulation

CC1=C(C(=O)Nc2ccc3[nH]ncc3c2)C(c2ccc(F)c(C(=O)NCc3ccccn3)c2)NC(=O)N1 (stereo not shown) [Compound 12h, 4-(4-Fluoro-3-((pyridin-2-ylmethyl)carbamoyl)phenyl)-N-(1H-indazol-5-yl)-6-methyl-2-oxo-1,2,3,4-tetrahydropyrimidine-5-carboxamide]
potency at stimulating cardiomyocyte contraction: equivalent to or slightly more potent than the lead 2
